# Test system: Balb/3T3 fibroblasts vs T24, DU-145 and MCF7 tumor cells
# Test: Mean selective index, fibroblasts versus tumor cells
# Type: cell-based
# Details: EC50 values fibroblasts/EC50 values tumor cells
# Experimental: These values were calculated from their effects on MTT reduction in three cancer cell lines and Balb/3T3 non transformed mouse fibroblasts as a function of their concentration during 48 h of incubation.
compound,measurement,value
"CO[C@@]12[C@H](COC(N)=O)C3=C(C(=O)C(C)=C(N)C3=O)N1C[C@@H]1N[C@@H]12 [MIT, mitomycin C, reference compound]",MSI: Mean Selective Index,1.39
